# Experimental data reported in patent US10751339B2, “Substituted aminopyrimidine compounds and methods of use” (SUNSHINE LAKE PHARMA CO., LTD., priority 2018, dated 2020).
# Assays:
# PI3K-α (SKOV3) = assay: p-AKT HTRF assay, PI3K-α in SKOV3 cells; format: cell-based; conditions: Homo sapiens, SK-OV-3, read-out: p-AKT HTRF IC50 PI3K-α (SKOV3)
# Protocol: (§1) Cells were incubated at 37° C. in a 5% CO2 atmosphere overnight. […] Medium was then aspirated and 50 μL/well of lysis buffer was added. Plates were shaked for 45 minutes at room temperature and then 16 ul/well of lysate was transferred to 384-well plate. 4 ul/well of premixed antibody was added to the wells. The plate was centrifuged at 1000 rpm at RT for 1 minute and then incubated for 4 hours at 22° C., and Phospho-AKT (ser473) Kit was used for detection.
# PI3K-β (786-O) = assay: p-AKT HTRF assay, PI3K-β in 786-O cells; format: cell-based; conditions: Homo sapiens, 786-0, read-out: p-AKT HTRF IC50 PI3K-β (786-O)
# Protocol: as §1
# PI3K-δ (RAJI) = assay: p-AKT HTRF assay, PI3K-δ in RAJI cells stimulated with anti-IgM; format: cell-based; conditions: Homo sapiens, read-out: p-AKT HTRF IC50 PI3K-δ (RAJI)
# Protocol: as §1
# PI3K-γ (RAW264.7) = assay: p-AKT HTRF assay, PI3K-γ in RAW 264.7 cells stimulated with C5a; format: cell-based, murine; conditions: Mus musculus, RAW264.7, read-out: p-AKT HTRF IC50 PI3K-γ (RAW264.7)
# Protocol: as §1
compound,measurement,setting,value
"Cc1nnc(-c2c(N)ncnc2N[C@@H](C)c2nc3cccc(C#CCO)c3c(=O)n2-c2ccccc2)o1 [Example 35, (S)-2-(1-((6-amino-5-(5-methyl-1,3,4-oxadiazol-2-yl)pyrimidin-4-yl)amino)ethyl)-5-(3-hydroxyprop-1-yn-1-yl)-3-phenylquinazolin-4(3H)-one]",IC50,PI3K-α (SKOV3),1720 nM
same,IC50,PI3K-β (786-O),482 nM
same,IC50,PI3K-δ (RAJI),11.2 nM
same,IC50,PI3K-γ (RAW264.7),1180 nM
